The results in this text go back to PubChem BioAssay (NCI).

SMILES strings stand for the structures. This is a selection; strong and weak results do not stand in their true shares. Some compounds were tested as several samples or in several runs, with calls that do not always agree. Active and inactive are the calls of the source. Rule as the data show it: active = growth inhibition above about 70%; inactive = the rest.

A short description of test [1]: NCI Yeast Anticancer Drug Screen. Data for the rad50 strain (AID 155).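 Also: 0% = growth of vehicle-only cultures of the same strain.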 To be noted: S. cerevisiae rad50 strain growth inhibition, active compounds read high.
A short description of test [2]: NCI Yeast Anticancer Drug Screen. Data for the mec2-1 strain (AID 157). To be noted: S. cerevisiae mec2-1 strain, active compounds read high.
A short description of test [3]: NCI Yeast Anticancer Drug Screen. Data for the sgs1 mgt1 strain (AID 161).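 Also: 0% = growth of cultures given vehicle only.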 The conditions noted are these: S. cerevisiae sgs1 mgt1 strain, active compounds read high.
Test [4] is described as follows: NCI Yeast Anticancer Drug Screen. Data for the cln2 rad14 strain (AID 165).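 Also: 0% = growth equal to vehicle treated cultures.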 The conditions noted are these: S. cerevisiae cln2 rad14 strain, active compounds read high.
Test [5] can be described thus: NCI Yeast Anticancer Drug Screen. Data for the bub3 strain (AID 167). To be noted: S. cerevisiae bub3 mutant strain, active compounds read high.
Test [6] can be described thus: NCI Yeast Anticancer Drug Screen. Data for the mlh1 rad18 strain (AID 175). The conditions noted are these: S. cerevisiae mlh1 rad18 strain growth inhibition, active compounds read high.
Where [7] appears, read: at 5.0 µM (retest, dose inferred, filed as 0.5).
[8] abbreviates: at 50.0 µM (retest, dose inferred, filed as 5.0).

Take `O=[N+]([O-])c1ccc([N+](=O)[O-])c(O)c1`: the growth inhibition was inactive: 33% in test [1] (setting [7]); active: 98% in test [1] (setting [8]); active: 90% in test [1] (at 50.0 µM); inactive: 32% in test [2] (setting [7]); active: 99% in test [2] (setting [8]); active: 93% in test [2] (at 50.0 µM). Moreover, the growth inhibition in test [3] (setting [7]) was inactive: 45%; in test [3] (setting [8]), active: 99%; in test [3] (at 50.0 µM) it was active: 91%; in test [4] (setting [7]) it was inactive: 34%; in test [4] (setting [8]) it was active: 98%; in test [4] (at 50.0 µM), active: 92.3%. Further, the growth inhibition is inactive: 66% in test [5] (setting [7]); active: 99% in test [5] (setting [8]); active: 91% in test [5] (at 50.0 µM); active: 79% in test [6] (setting [7]); active: 99% in test [6] (setting [8]); active: 91.2% in test [6] (at 50.0 µM).

For `O=[N+]([O-])C1(Br)CCC(Br)([N+](=O)[O-])CC1` (configuration not stated), the growth inhibition is active: 98% in test [1] (setting [7]); active: 96% in test [1] (setting [8]); active: 97.8% in test [1] (at 50.0 µM); active: 100% in test [2] (setting [7]); active: 97% in test [2] (setting [8]); active: 98.2% in test [2] (at 50.0 µM). The growth inhibition in test [3] (setting [7]) was active: 98%; in test [3] (setting [8]), active: 97%; in test [3] (at 50.0 µM), active: 98.2%; in test [4] (setting [7]), inactive: 38%; in test [4] (setting [8]) it was active: 86%; in test [4] (at 50.0 µM), active: 96.8%. The growth inhibition in test [5] (setting [7]) is active: 99%; in test [5] (setting [8]), active: 96%; in test [5] (at 50.0 µM), active: 98%; in test [6] (setting [7]) it was active: 99%; in test [6] (setting [8]), active: 96%; in test [6] (at 50.0 µM) it was active: 98%.

On to `CCc1cc(O)c([N+](=O)[O-])c(C)c1[N+](=O)[O-]`, for which the growth inhibition was inactive: 4% in test [1] (setting [7]); active: 72% in test [1] (setting [8]); active: 79.4% in test [1] (at 50.0 µM); inactive: 6% in test [2] (setting [7]); active: 83% in test [2] (setting [8]); active: 92.3% in test [2] (at 50.0 µM). The growth inhibition in test [3] (setting [7]) is inactive: 6%; in test [3] (setting [8]), active: 86%; in test [3] (at 50.0 µM), inactive: -3.25%; in test [4] (setting [7]), inactive: -3%; in test [4] (setting [8]), active: 76%; in test [4] (at 50.0 µM), active: 82.9%. For the same compound, the growth inhibition in test [5] (setting [7]) is inactive: -2%; in test [5] (setting [8]), active: 79%; in test [5] (at 50.0 µM) it was active: 81.7%; in test [6] (setting [7]) it was inactive: 0%; in test [6] (setting [8]) it was active: 78%; in test [6] (at 50.0 µM), inactive: 46.5%.

For the compound `O=C(CO)Nc1ccc([As](=O)(O)O)cc1`, the growth inhibition in test [1] (setting [7]) is inactive: -13%; in test [1] (setting [8]), inactive: -3%; in test [1] (at 50.0 µM), inactive: -30.1%; in test [2] (setting [7]) it was inactive: 4%; in test [2] (setting [8]), inactive: 2%; in test [2] (at 50.0 µM) it was inactive: -22.9%. Also, the growth inhibition in test [3] (setting [7]) was inactive: -2%; in test [3] (setting [8]) it was inactive: -9%; in test [3] (at 50.0 µM), inactive: -22.4%; in test [4] (setting [7]), inactive: 12%; in test [4] (setting [8]) it was inactive: -15%; in test [4] (at 50.0 µM), inactive: 44.9%. Moreover, the growth inhibition in test [5] (setting [7]) was inactive: -6%; in test [5] (setting [8]), inactive: 4%; in test [5] (at 50.0 µM) it was inactive: -57.5%; in test [6] (setting [7]) it was inactive: 3%; in test [6] (setting [8]), inactive: 5%; in test [6] (at 50.0 µM), inactive: -3.2%.

For the compound `Cc1cccc2cc3cccc(C)c3nc12`, the growth inhibition in test [1] (setting [7]) was inactive: 20%; in test [1] (setting [8]) it was active: 73%; in test [1] (at 50.0 µM) it was inactive: 68.2%; in test [2] (setting [7]), inactive: 26%; in test [2] (setting [8]) it was active: 81%; in test [2] (at 50.0 µM), inactive: 27.1%. The growth inhibition in test [3] (setting [7]) was inactive: 25%; in test [3] (setting [8]), inactive: 47%; in test [3] (at 50.0 µM), inactive: 63.4%; in test [4] (setting [7]), inactive: 5%; in test [4] (setting [8]), inactive: 33%; in test [4] (at 50.0 µM), inactive: 13.8%. Further, the growth inhibition was inactive: 20% in test [5] (setting [7]); active: 85% in test [5] (setting [8]); inactive: 58.2% in test [5] (at 50.0 µM); inactive: 38% in test [6] (setting [7]); active: 85% in test [6] (setting [8]); inactive: 68% in test [6] (at 50.0 µM).

For `O=C(CSc1ccc([N+](=O)[O-])cc1[N+](=O)[O-])NCCNC(=O)CSc1ccc([N+](=O)[O-])cc1[N+](=O)[O-]`, the growth inhibition in test [1] (setting [7]) was active: 99%; in test [1] (setting [8]), active: 99%; in test [1] (at 50.0 µM) it was inactive: 57.5%; in test [2] (setting [7]) it was active: 99%; in test [2] (setting [8]) it was active: 99%; in test [2] (at 50.0 µM), active: 92.5%. Moreover, the growth inhibition is active: 99% in test [3] (setting [7]); active: 99% in test [3] (setting [8]); active: 91.5% in test [3] (at 50.0 µM); active: 99% in test [4] (setting [7]); active: 99% in test [4] (setting [8]); active: 91.8% in test [4] (at 50.0 µM). The growth inhibition in test [5] (setting [7]) is active: 98%; in test [5] (setting [8]) it was active: 98%; in test [5] (at 50.0 µM), active: 93.4%; in test [6] (setting [7]) it was active: 99%; in test [6] (setting [8]), active: 99%; in test [6] (at 50.0 µM), active: 87.8%.

For the compound `CCOC(=O)C(c1ccc([N+](=O)[O-])cc1[N+](=O)[O-])c1ccc([N+](=O)[O-])cc1[N+](=O)[O-]`, the growth inhibition is inactive: 8% in test [1] (setting [7]); inactive: 31% in test [1] (setting [8]); inactive: 56.6% in test [1] (at 50.0 µM); inactive: 20% in test [2] (setting [7]); inactive: 61% in test [2] (setting [8]); inactive: 36.8% in test [2] (at 50.0 µM). Also, the growth inhibition in test [3] (setting [7]) is inactive: 2%; in test [3] (setting [8]), inactive: 61%; in test [3] (at 50.0 µM), inactive: 69%; in test [4] (setting [7]), inactive: 9%; in test [4] (setting [8]), inactive: 32%; in test [4] (at 50.0 µM), inactive: 54.6%. The growth inhibition in test [5] (setting [7]) was inactive: 7%; in test [5] (setting [8]), inactive: 45%; in test [5] (at 50.0 µM), inactive: 41%; in test [6] (setting [7]), inactive: 31%; in test [6] (setting [8]) it was inactive: 63%; in test [6] (at 50.0 µM), inactive: 57.3%.

Regarding `CCN(CC)CC(c1ccccc1)C1(O)CCCCC1` (configuration not stated), the growth inhibition in test [1] (setting [7]) was inactive: 0%; in test [1] (setting [8]) it was inactive: -2%; in test [1] (at 50.0 µM) it was inactive: 19.8%; in test [2] (setting [7]), inactive: 2%; in test [2] (setting [8]) it was inactive: 7%; in test [2] (at 50.0 µM) it was inactive: 12.6%. Also, the growth inhibition in test [3] (setting [7]) is inactive: -3%; in test [3] (setting [8]) it was inactive: 13%; in test [3] (at 50.0 µM), inactive: 42.4%; in test [4] (setting [7]) it was inactive: 1%; in test [4] (setting [8]), inactive: 10%; in test [4] (at 50.0 µM) it was inactive: 67%. Further, the growth inhibition is inactive: 0% in test [5] (setting [7]); inactive: 7% in test [5] (setting [8]); inactive: -0.25% in test [5] (at 50.0 µM); inactive: 3% in test [6] (setting [7]); inactive: 6% in test [6] (setting [8]); inactive: 19.3% in test [6] (at 50.0 µM).

Consider `CC(=O)OC1(C)CC(=O)OCC23CCC(C)=CC2OC2CC(OC(=O)/C=C/C=C/C(C(C)O)OCC1O)C3(C)C21CO1` (configuration not stated), for which the growth inhibition in test [1] (setting [7]) was inactive: 15%; in test [1] (setting [8]) it was active: 96%; in test [1] (at 50.0 µM) it was active: 90%; in test [2] (setting [7]), inactive: 12%; in test [2] (setting [8]), active: 96%; in test [2] (at 50.0 µM), active: 93.6%. For the same compound, the growth inhibition in test [3] (setting [7]) was inactive: 4%; in test [3] (setting [8]) it was active: 97%; in test [3] (at 50.0 µM) it was active: 92.2%; in test [4] (setting [7]), inactive: 34%; in test [4] (setting [8]), active: 96%; in test [4] (at 50.0 µM), active: 90.4%. Further, the growth inhibition in test [5] (setting [7]) was inactive: 3%; in test [5] (setting [8]), active: 96%; in test [5] (at 50.0 µM), active: 91.7%; in test [6] (setting [7]) it was inactive: 15%; in test [6] (setting [8]) it was active: 95%; in test [6] (at 50.0 µM) it was active: 90.7%.
